# Experimental data as given in patent US11116741B2, “Method for the treatment of valvular heart disease comprising administering a composition comprising sarpogrelate” (CEVA SANTE ANIMALE, priority 2017, dated 2021).
# Assay: Body weight, food intake, water intake, systolic blood pressure and heart rate in the NdF mouse model
# Assay type: in vivo, mice
# Protocol: Before the start of the experiment, baseline systolic blood pressure, heart rate and body weight were measured. After this step, mice were subcutaneously implanted a mini-osmotic pump (Alzet® 1004) delivering either NdF dissolved in sterile water at 1 mg/kg/day or sterile water (vehicle) for 28 days. The dose of sarpogrelate administered was 2 mg/kg/day. The experiment started two days after the subcutaneous implantation so as to allow the activation of the mini-osmotic pump. Systolic blood pressure, heart rate and body weight were measured each week until the end of the experiment. At the term (day 28), urinary samples were collected from mice to determine 5-hydroxy-indol acetic acid concentration (5-HIAA which is a serotonin metabolite). NdF induces the release of serotonin, therefore increasing urinary 5-HIAA.
# Measures of body weight (Table 3), food intake (Table 4), water intake (Table 5), systolic blood pressure (Table 6), heart rate (Table 7), effect of sarpogrelate on the cellularity (tables 8-9) and effect of sarpogrelate on reduction of mitral valve thickness (table 10) are shown below.
smiles,measurement,setting,value
"C[C@H](N)Cc1cccc(C(F)(F)F)c1 [NdF, nordexfenfluramine]",Body weight,Week 2,26.7 g
same,Systolic blood pressure,Week 3,105.6 mmHg
